Columns and labels:
[1] = biological target: Melanin-concentrating hormone receptor (Homo sapiens, UniProt Q969V1+Q99705); assay: Inhibition of Melanin-concentrating hormone (MCH) mediated [Ca2+] release in IMR-32 cells; type: functional, cell-based
[2] = biological target: Melanin-concentrating hormone receptor 1 (Homo sapiens) (UniProt Q99705); assay: Inhibitory concentration against human Melanin-concentrating hormone receptor 1 expressed in IMR-32 cells using [125I]MCH

Protein sequences, listed by entry. Tags and fused reporters are not part of them. Lines headed by an entry give the natural chain unless they say otherwise; changes in a name come on top.
UniProt Q969V1: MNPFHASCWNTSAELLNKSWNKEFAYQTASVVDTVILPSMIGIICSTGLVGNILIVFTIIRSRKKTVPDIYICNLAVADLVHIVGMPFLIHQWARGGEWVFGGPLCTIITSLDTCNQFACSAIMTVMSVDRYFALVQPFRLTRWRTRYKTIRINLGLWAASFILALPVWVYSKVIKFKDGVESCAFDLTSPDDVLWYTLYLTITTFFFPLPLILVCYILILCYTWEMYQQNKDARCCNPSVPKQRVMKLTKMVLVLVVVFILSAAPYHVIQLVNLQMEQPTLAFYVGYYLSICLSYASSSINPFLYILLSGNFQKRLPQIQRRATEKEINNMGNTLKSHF

SMILES: O=C(Nc1ccc2c(cnn2CCN2CCCC2)c1)NC1CCN(Cc2ccccc2)CC1
- IC50 [1]: > 10000 nM
- IC50 [2]: 971 nM
